32 compounds from US9376387B2 (priority 2013, dated 2016) can be followed below.

Structures are written as SMILES.

For this test, the system named is Peripheral Anionic Site (PAS) of AChE.
In the case of `COc1cc2c(cc1OC)C(=O)C(Cc1cc[n+](Cc3ccccc3)cc1C(C)=O)C2.[Br-]` (stereo not drawn) [Compound 33, 1-Benzyl-3-actyl-4-(5,6-dimethoxy-1-oxo-2,3-dihydro-1H-inden-2-yl)methyl pyridinium bromide], the “Binding to the PAS measured by propidium iodide displacement” value (“Binding to the PAS measured” below) is on record as 23% and the “Binding to the PAS: % of Propidium Iodide Displacement” value is 23%.

Regarding `COc1cc2c(cc1OC)C(=O)C(CC1C=CN(Cc3cccc(Cl)c3)C=C1C(C)=O)C2` (stereo not drawn) [Compound 77, 2-[[3-acetyl-1-[(3-chlorophenyl)methyl]-4H-pyridin-4-yl]methyl]-5,6-dimethoxy-indan-1-one], the “Binding to the PAS measured” value is given as 18%.

In the case of `COc1ccc2c(c1)CCC(Cc1cc[n+](Cc3ccccc3)cc1C(C)=O)C2=O.[Cl-]` (stereo not drawn) [Compound 82, 2-[(3-acetyl-1-benzyl-pyridin-1-ium-4-yl)methyl]-6-methoxy-tetralin-1-one chloride], the “Binding to the PAS measured” value was 22%.

Regarding `COc1ccc2c(c1)CCC(Cc1cc[n+](Cc3ccccc3)cc1Br)C2=O.[Br-]` (stereo not drawn) [Compound 117, 2-[(1-benzyl-3-bromo-pyridin-1-ium-4-yl)methyl]-6-methoxy-tetralin-1-one bromide], the “Binding to the PAS measured” value was 20%.

Consider `COc1ccc2c(c1)CCC(Cc1cc[n+](Cc3cccc(C)c3)cc1Br)C2=O.[Br-]` (stereo not drawn) [Compound 118, 2-[[3-bromo-1-(m-tolylmethyl)pyridin-1-ium-4-yl]methyl]-6-methoxy-tetralin-1-one bromide], for which the “Binding to the PAS measured” value is listed as 19%.

In the case of `COc1ccc2c(c1)CCC(Cc1cc[n+](Cc3ccccc3)cc1C(C)=O)C2=O.[Br-]` (stereo not drawn) [Compound 119, 2-[(3-acetyl-1-benzyl-pyridin-1-ium-4-yl)methyl]-6-methoxy-tetralin-1-one bromide], the “Binding to the PAS measured” value stood at 23%.

Consider `COc1ccc2c(c1)CCC(Cc1cc[n+](Cc3cccc(C)c3)cc1C(C)=O)C2=O.[Br-]` (stereo not drawn) [Compound 120, 2-[[3-acetyl-1-(m-tolylmethyl)pyridin-1-ium-4-yl]methyl]-6-methoxy-tetralin-1-one bromide], for which the “Binding to the PAS measured” value is 27%.

For `COc1ccc2c(c1)CCC(Cc1cc[n+](Cc3ccccc3C)cc1C(C)=O)C2=O.[Br-]` (stereo not drawn) [Compound 121, 2-[[3-acetyl-1-(o-tolylmethyl)pyridin-1-ium-4-yl]methyl]-6-methoxy-tetralin-1-one bromide], the “Binding to the PAS measured” value amounted to 24%.

For the compound `COc1ccc2c(c1)CCC(Cc1cc[n+](Cc3cccc(Cl)c3)cc1C(C)=O)C2=O.[Br-]` (stereo not drawn) [Compound 122, 2-[[3-acetyl-1-[(3-chlorophenyl)methyl]pyridin-1-ium-4-yl]methyl]-6-methoxy-tetralin-1-one bromide], the “Binding to the PAS measured” value is given as 20%.

Regarding `COc1ccc2c(c1)CCC(Cc1cc[n+](Cc3cccc([N+](=O)[O-])c3)cc1C(C)=O)C2=O.[Br-]` (stereo not drawn) [Compound 123, 2-[[3-acetyl-1-[(3-nitrophenyl)methyl]pyridin-1-ium-4-yl]methyl]-6-methoxy-tetralin-1-one bromide], the “Binding to the PAS measured” value turned out to be 22%.

Consider `COc1ccc2c(c1)CCC(Cc1cc[n+](Cc3cccc(C(F)(F)F)c3)cc1C(C)=O)C2=O.[Br-]` (stereo not drawn) [Compound 124, 2-[[3-acetyl-1-[[3-(trifluoromethyl)phenyl]methyl]pyridin-1-ium-4-yl]methyl]-6-methoxy-tetralin-1-one bromide], for which the “Binding to the PAS measured” value stood at 25%.

Take `COc1ccc2c(c1)CCC(Cc1cc[n+](Cc3ccccc3[N+](=O)[O-])cc1C(C)=O)C2=O.[Br-]` (stereo not drawn) [Compound 125, 2-[[3-acetyl-1-[(2-nitrophenyl)methyl]pyridin-1-ium-4-yl]methyl]-6-methoxy-tetralin-1-one bromide]: the “Binding to the PAS measured” value is recorded as 23%.

Regarding `COc1ccc2c(c1)CCC(Cc1cc[n+](Cc3ccccc3Cl)cc1C(C)=O)C2=O.[Br-]` (stereo not drawn) [Compound 126, 2-[[3-acetyl-1-[(2-chlorophenyl)methyl]pyridin-1-ium-4-yl]methyl]-6-methoxy-tetralin-1-one bromide], the “Binding to the PAS measured” value stood at 22%.

Regarding `COc1ccc2c(c1)CCC(Cc1cc[n+](Cc3ccccc3F)cc1C(C)=O)C2=O.[Br-]` (stereo not drawn) [Compound 127, 2-[[3-acetyl-1-[(2-fluorophenyl)methyl]pyridin-1-ium-4-yl]methyl]-6-methoxy-tetralin-1-one bromide], the “Binding to the PAS measured” value is listed as 21%.

For `COc1ccc2c(c1)CCC(Cc1cc[n+](Cc3cccc(F)c3)cc1C(C)=O)C2=O.[Br-]` (stereo not drawn) [Compound 128, 2-[[3-acetyl-1-[(3-fluorophenyl)methyl]pyridin-1-ium-4-yl]methyl]-6-methoxy-tetralin-1-one bromide], the “Binding to the PAS measured” value worked out at 23%.

As to `COc1ccc2c(c1)CCC(Cc1cc[n+](Cc3ccc(F)cc3)cc1C(C)=O)C2=O.[Br-]` (stereo not drawn) [Compound 129, 2-[[3-acetyl-1-[(4-fluorophenyl)methyl]pyridin-1-ium-4-yl]methyl]-6-methoxy-tetralin-1-one bromide], the “Binding to the PAS measured” value turned out to be 22%.

With `COc1ccc2c(c1)CCC(Cc1cc[n+](Cc3ccc(C)cc3)cc1C(C)=O)C2=O.[Br-]` (stereo not drawn) [Compound 130, 2-[[3-acetyl-1-(p-tolylmethyl)pyridin-1-ium-4-yl]methyl]-6-methoxy-tetralin-1-one bromide], the “Binding to the PAS measured” value is given as 23%.

Take `COc1ccc2c(c1)CCC(Cc1cc[n+](Cc3ccc(Cl)cc3)cc1C(C)=O)C2=O.[Br-]` (stereo not drawn) [Compound 131, 2-[[3-acetyl-1-[(4-chlorophenyl)methyl]pyridin-1-ium-4-yl]methyl]-6-methoxy-tetralin-1-one bromide]: the “Binding to the PAS measured” value amounted to 19%.

For the compound `COc1cc2c(cc1OC)C(=O)C(Cc1cc[n+](Cc3ccccc3)cc1C(C)=O)CC2.[Br-]` (stereo not drawn) [Compound 132, 2-[(3-actyl-1-benzyl-pyridin-1-ium-4-yl)methyl]-6,7-dimethoxy-tetralin-1-one bromide], the “Binding to the PAS measured” value turned out to be 24%.

For `COc1cc2c(cc1OC)C(=O)C(Cc1cc[n+](Cc3ccccc3)cc1F)CC2.[Br-]` (stereo not drawn) [Compound 133, 2[(1-benzyl-3-fluoro-pyridin-1-ium-4-yl)methyl]-6,7-dimethoxy-tetralin-1-one bromide], the “Binding to the PAS measured” value stood at 18%.

For the compound `CC(=O)c1c[n+](Cc2ccccc2C)ccc1CC1Cc2cc(Cl)ccc2C1=O.[Br-]` (stereo not drawn) [Compound 136, 2-[[3-acetyl-1-(o-tolylmethyl)pyridin-1-ium-4-yl]methyl]-5-chloro-indan-1-one bromide], the “Binding to the PAS measured” value is recorded as 20%.

On to `COc1ccc2c(c1)CC(Cc1cc[n+](Cc3ccccc3C)cc1C(C)=O)C2=O.[Br-]` (stereo not drawn) [Compound 138, 2-[[3-acetyl-1-(o-tolylmethyl)pyridin-1-ium-4-yl]methyl]-5-methoxy-indan-1-one bromide], for which the “Binding to the PAS measured” value worked out at 23%.

`CC(=O)c1c[n+](Cc2ccccc2C)ccc1CC1Cc2cc3c(cc2C1=O)OCO3.[Br-]` (stereo not drawn) [Compound 139, 6-[[3-acetyl-1-(o-tolylmethyl)pyridin-1-ium-4-yl]methyl]-5,6-dihydrocyclopenta[f][1,3]benzodioxol-7-one bromide]: the “Binding to the PAS measured” value worked out at 19%.

In the case of `COc1cc2c(cc1OC)C(=O)C(Cc1cc[n+](Cc3ccccc3Cl)cc1Br)C2.[Br-]` (stereo not drawn) [Compound 140, 2-[[3-bromo-1-[(2-chlorophenyl)methyl]pyridin-1-ium-4-yl]methyl]-5,6-dimethoxy-indan-1-one bromide], the “Binding to the PAS measured” value came out at 21%.

For the compound `COc1cc2c(cc1OC)C(=O)C(Cc1cc[n+](Cc3ccccc3C)cc1Br)C2.[Br-]` (stereo not drawn) [Compound 141, 2-[[3-bromo-1-(o-tolylmethyl)pyridin-1-ium-4-yl]methyl]-5,6-dimethoxy-indan-1-one bromide], the “Binding to the PAS measured” value came out at 20%.

Consider `COc1cc2c(cc1OC)C(=O)C(Cc1cc[n+](Cc3ccccc3C)cc1C(C)=O)C2.[Br-]` (stereo not drawn) [Compound 142, 2-[[3-acetyl-1-(o-tolylmethyl)pyridin-1-ium-4-yl]methyl]-5,6-dimethoxy-indan-1-one bromide], for which the “Binding to the PAS measured” value was determined as 18%.

As to `COc1cc2c(cc1OC)C(=O)C(Cc1cc[n+](Cc3cccc(Cl)c3)cc1C(C)=O)C2.[Br-]` (stereo not drawn) [Compound 144, 2-[[3-acetyl-1-[(3-chlorophenyl)methyl]pyridin-1-ium-4-yl]methyl]-5,6-dimethoxy-indan-1-one bromide], the “Binding to the PAS measured” value was 16%.

As for `COc1cc2c(cc1OC)C(=O)C(Cc1cc[n+](Cc3ccccc3)cc1Br)C2.[Br-]` (stereo not drawn) [Compound 145, 2-[(1-benzyl-3-bromo-pyridin-1-ium-4-yl)methyl]-5,6-dimethoxy-indan-1-one bromide], the “Binding to the PAS measured” value worked out at 16%.

For the compound `COc1cc2c(cc1OC)C(=O)C(Cc1cc[n+](Cc3cccc(C)c3)cc1Br)C2.[Br-]` (stereo not drawn) [Compound 146, 2-[[3-bromo-1-(m-tolylmethyl)pyridin-1-ium-4-yl]methyl]-5,6-dimethoxy-indan-1-one bromide], the “Binding to the PAS measured” value is on record as 18%.

Regarding `COc1cc2c(cc1OC)C(=O)/C(=C/c1cc[n+](Cc3ccccc3)cc1C(C)=O)C2` [Compound 149, (2E)-2-[(3-actyl-1-benzyl-pyridin-1-ium-4-yl)methylene]-5,6-dimethoxy-indan-1-one bromide], the “Binding to the PAS measured” value came out at 23%.

Consider `CC(=O)c1c[n+](Cc2ccccc2C)ccc1CC1Cc2cc(C)c(C)cc2C1=O.[Br-]` (stereo not drawn) [Compound 152, 2-[[3-acetyl-1-(o-tolylmethyl)pyridin-1-ium-4-yl]methyl]-5,6-dimethyl-indan-1-one bromide], for which the “Binding to the PAS measured” value amounted to 18%.

On to `COc1ccc2c(c1)CCC(CC1C=CN(Cc3cccc(F)c3)C=C1C(C)=O)C2=O` (stereo not drawn) [Compound 156, 2-[[3-acetyl-1-[(3-fluorophenyl)methyl]-4H-pyridin-4-yl]methyl]-6-methoxy-tetralin-1-one], for which the “Binding to the PAS measured” value is listed as 26%.
